Literature values in patent US20250108054A1, “METHODS FOR TREATING PERSISTENT OR CHRONIC IMMUNE THROMBOCYTOPENIA IN CHILDREN, ADOLESCENTS AND ADULTS BY ADMINISTERING (R)-2-[3-[4-AMINO-3-(2-FLUORO-4-PHENOXY-PHENYL)PYRAZOLO[3,4-D]PYRIMIDIN-1-YL]PIPERIDINE-1-CARBONYL]-4-METHYL-4-[4-(OXETAN-3-YL)PIPERAZIN-1-YL]PENT-2-ENENITRILE” (Principia Biopharma Inc., priority 2023, published 2025).

System: healthy volunteers
Settings: healthy volunteers (N=51), even at supratherapeutic doses; cited from earlier work

SMILES: CC(C)(C=C(C#N)C(=O)N1CCC[C@@H](n2nc(-c3ccc(Oc4ccccc4)cc3F)c3c(N)ncnc32)C1)N1CCN(C2COC2)CC1 (mixture of isomers) [rilzabrutinib, (R)-2-[3-[4-amino-3-(2-fluoro-4-phenoxy-phenyl)pyrazolo[3,4-d]pyrimidin-1-yl]piperidine-1-carbonyl]-4-methyl-4-[4-(oxetan-3-yl)piperazin-1-yl]pent-2-enenitrile]
- effects on cardiac repolarization (ECG parameters including corrected QT interval): does not exert clinically relevant effects
